# Laboratory results as given in ChEMBL document CHEMBL1821566, “Design and characterization of a potent and selective dual ATP- and substrate-competitive subnanomolar bidentate c-Jun N-terminal kinase (JNK) inhibitor” (J Med Chem, 2011).
# By UniProt entry, the sequences of proteins in these tests, tags left out. Where a name states a change or a piece, a line headed by the entry shows the natural chain unless it says otherwise.
# UniProt P45983: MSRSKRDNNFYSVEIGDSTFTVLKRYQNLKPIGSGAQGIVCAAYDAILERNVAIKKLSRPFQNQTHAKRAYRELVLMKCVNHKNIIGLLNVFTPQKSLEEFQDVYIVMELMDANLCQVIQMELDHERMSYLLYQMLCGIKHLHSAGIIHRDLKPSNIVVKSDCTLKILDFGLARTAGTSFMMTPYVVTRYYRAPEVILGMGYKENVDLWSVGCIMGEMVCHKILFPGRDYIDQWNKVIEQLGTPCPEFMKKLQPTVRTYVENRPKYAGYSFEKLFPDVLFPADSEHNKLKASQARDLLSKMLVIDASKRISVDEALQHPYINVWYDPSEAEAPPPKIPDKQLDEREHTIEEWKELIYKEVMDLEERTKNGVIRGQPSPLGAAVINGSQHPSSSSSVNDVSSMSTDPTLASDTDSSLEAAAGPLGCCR
# Target: Mitogen-activated protein kinase 8 (Homo sapiens, UniProt P45983)
# Assay: Competitive inhibition of JNK1 using ATF2 substrate by Lineweaver-Burk analysis
compound,measurement,value
CC(C)C[C@@H](NC(=O)CNC(=O)CNC(=O)CCCNC(=O)c1ccc(-c2n[nH]c3ccccc23)cc1)C(=O)N[C@H](CC(N)=O)C(=O)N[C@H](CC(C)C)C(=O)N[C@@H](C(=O)N[C@@H](C(=O)N1CCC[C@@H]1C(=O)N[C@H](CCCNC(=N)N)C(=O)NCC(=O)NCC(=O)N[C@H](CCCNC(=N)N)C(=O)N[C@H](CCCNC(=N)N)C(=O)N[C@H](CCCNC(=N)N)C(=O)N[C@H](CCC(N)=O)C(=O)N[C@H](CCCNC(=N)N)C(=O)N[C@H](CCCNC(=N)N)C(=O)N[C@H](CCCCN)C(=O)N[C@H](CCCCN)C(=O)N[C@H](CCCNC(=N)N)C(=O)NCC(N)=O)[C@H](C)O)[C@H](C)O,Ki,1.5 nM
